Results on one compound are retold here after article PMC4844575, “The influence of different metal-chelate conjugates of pentixafor on the CXCR4 affinity” (EJNMMI Research, 2016).

Protein sequences, listed by entry. Tags and fused reporters are not part of them.
UniProt P61073, whole entry, looked up: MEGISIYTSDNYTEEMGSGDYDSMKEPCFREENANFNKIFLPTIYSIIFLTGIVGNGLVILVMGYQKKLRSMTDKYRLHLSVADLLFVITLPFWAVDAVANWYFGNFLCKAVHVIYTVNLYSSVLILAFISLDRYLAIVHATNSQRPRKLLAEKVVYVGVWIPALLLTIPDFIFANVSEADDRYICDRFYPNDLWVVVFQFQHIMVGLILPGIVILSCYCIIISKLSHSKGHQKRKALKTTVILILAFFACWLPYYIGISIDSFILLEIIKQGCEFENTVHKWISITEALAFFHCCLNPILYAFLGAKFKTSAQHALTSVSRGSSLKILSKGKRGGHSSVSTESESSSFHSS

The term IC50 denotes the concentration needed to halve the response being measured. Lower therefore signals higher potency.

Structures are written as SMILES.

The assay has as its target CXCR4 (Homo sapiens, UniProt P61073). Nature of the assay: competitive binding assay on Jurkat cells with [125I]FC131 as radioligand. The conditions noted are these: Jurkat T-cells, 4 × 10^5 cells per vial, app. 0.1 nM [125I]FC131, 120 min incubation, mean ± SD (n = 3).

As for `CN1C(=O)[C@@H](Cc2ccc(O)cc2)NC(=O)CNC(=O)[C@H](Cc2ccc3ccccc3c2)NC(=O)[C@H](CCCNC(=N)N)NC(=O)[C@H]1CCCNC(=O)c1ccc(CNC(=O)CN2CCN(CC(=O)O)CCN(CC(=O)O)CCN(CC(=O)O)CC2)cc1`, the concentration for half-maximal inhibition (IC50) was found to be 0.0248 µM.
